What all share (type): functional
Test [1] has as its target Tyrosine-protein kinase Fyn (Homo sapiens, UniProt P06241).
For test [2], the target named is High affinity nerve growth factor receptor (Homo sapiens, UniProt P04629).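 Further: NTRK1 tested as one member of a kinome-wide profiling panel.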
Test [3] deals with Hepatocyte growth factor receptor (Homo sapiens, UniProt P08581).
For test [4], the target named is Dual specificity protein kinase CLK2 (Homo sapiens, UniProt P49760).

Protein sequences, listed by entry. Tags and fused reporters are not part of them. Lines headed by an entry give the natural chain unless they say otherwise; changes in a name come on top.
UniProt P06241, whole entry: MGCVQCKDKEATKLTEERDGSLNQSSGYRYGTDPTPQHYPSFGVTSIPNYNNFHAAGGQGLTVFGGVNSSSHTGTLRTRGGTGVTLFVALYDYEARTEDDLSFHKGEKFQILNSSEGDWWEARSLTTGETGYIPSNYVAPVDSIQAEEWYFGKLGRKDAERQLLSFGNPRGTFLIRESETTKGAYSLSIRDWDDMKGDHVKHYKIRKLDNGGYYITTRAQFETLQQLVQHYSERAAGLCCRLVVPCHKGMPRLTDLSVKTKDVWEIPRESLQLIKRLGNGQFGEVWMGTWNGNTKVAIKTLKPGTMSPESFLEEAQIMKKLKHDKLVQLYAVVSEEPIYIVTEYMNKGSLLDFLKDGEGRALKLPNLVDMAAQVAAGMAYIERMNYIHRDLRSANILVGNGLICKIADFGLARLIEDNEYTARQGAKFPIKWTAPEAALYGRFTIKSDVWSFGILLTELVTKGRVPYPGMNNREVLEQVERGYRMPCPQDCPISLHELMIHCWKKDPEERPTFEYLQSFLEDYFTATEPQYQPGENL
UniProt P04629: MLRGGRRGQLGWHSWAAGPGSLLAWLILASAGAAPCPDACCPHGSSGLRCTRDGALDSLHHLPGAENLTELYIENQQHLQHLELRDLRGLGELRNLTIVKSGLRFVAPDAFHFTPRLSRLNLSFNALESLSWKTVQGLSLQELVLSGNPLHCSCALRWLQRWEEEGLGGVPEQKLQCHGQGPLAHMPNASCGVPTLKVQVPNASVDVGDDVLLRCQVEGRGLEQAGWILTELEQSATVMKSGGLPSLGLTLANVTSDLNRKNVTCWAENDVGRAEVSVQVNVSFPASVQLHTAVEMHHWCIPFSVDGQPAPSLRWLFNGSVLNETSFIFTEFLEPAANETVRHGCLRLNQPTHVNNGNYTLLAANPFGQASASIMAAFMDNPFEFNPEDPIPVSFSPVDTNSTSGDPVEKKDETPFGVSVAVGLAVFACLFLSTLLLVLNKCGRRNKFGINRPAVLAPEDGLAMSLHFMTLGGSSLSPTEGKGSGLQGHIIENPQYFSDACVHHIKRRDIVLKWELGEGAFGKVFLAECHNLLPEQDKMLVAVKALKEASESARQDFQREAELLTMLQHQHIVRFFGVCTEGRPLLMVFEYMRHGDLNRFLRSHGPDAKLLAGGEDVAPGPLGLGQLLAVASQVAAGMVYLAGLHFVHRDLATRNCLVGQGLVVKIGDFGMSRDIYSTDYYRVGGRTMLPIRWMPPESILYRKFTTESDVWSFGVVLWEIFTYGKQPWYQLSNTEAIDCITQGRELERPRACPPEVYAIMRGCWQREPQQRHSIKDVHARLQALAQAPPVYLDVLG
UniProt P08581: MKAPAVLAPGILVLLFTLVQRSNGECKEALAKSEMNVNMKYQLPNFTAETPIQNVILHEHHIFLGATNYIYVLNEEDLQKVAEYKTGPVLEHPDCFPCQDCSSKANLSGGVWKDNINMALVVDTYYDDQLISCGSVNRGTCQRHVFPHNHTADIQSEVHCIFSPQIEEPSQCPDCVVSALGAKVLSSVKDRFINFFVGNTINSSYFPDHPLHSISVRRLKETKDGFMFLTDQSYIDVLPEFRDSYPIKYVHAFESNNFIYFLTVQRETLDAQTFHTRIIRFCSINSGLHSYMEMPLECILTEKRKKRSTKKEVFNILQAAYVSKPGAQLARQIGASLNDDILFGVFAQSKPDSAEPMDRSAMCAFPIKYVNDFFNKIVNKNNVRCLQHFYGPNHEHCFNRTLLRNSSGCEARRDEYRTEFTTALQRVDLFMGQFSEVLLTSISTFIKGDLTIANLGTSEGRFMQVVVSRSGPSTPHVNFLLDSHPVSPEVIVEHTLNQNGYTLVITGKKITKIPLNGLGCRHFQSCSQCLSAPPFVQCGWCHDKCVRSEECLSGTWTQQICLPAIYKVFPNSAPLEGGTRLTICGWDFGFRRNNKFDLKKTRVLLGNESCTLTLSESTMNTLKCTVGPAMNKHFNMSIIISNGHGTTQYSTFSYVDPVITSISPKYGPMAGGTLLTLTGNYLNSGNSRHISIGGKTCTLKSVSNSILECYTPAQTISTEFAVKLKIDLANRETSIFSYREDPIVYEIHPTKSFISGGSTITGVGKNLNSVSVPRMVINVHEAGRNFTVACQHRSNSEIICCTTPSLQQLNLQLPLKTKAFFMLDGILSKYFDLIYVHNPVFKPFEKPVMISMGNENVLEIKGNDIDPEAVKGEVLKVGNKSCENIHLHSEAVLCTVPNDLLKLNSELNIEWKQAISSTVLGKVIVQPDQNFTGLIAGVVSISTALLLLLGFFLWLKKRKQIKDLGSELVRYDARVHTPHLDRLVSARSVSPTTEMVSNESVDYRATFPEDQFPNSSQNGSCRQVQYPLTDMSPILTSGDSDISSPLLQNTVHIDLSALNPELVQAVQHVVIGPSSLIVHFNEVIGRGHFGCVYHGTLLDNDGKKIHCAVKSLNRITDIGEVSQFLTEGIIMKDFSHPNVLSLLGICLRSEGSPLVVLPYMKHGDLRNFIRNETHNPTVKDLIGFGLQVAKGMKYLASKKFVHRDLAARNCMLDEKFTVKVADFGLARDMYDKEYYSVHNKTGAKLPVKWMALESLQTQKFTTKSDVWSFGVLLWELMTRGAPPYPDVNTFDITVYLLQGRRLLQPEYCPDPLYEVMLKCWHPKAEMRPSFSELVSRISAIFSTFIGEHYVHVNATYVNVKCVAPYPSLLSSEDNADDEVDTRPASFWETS
UniProt P49760, whole entry: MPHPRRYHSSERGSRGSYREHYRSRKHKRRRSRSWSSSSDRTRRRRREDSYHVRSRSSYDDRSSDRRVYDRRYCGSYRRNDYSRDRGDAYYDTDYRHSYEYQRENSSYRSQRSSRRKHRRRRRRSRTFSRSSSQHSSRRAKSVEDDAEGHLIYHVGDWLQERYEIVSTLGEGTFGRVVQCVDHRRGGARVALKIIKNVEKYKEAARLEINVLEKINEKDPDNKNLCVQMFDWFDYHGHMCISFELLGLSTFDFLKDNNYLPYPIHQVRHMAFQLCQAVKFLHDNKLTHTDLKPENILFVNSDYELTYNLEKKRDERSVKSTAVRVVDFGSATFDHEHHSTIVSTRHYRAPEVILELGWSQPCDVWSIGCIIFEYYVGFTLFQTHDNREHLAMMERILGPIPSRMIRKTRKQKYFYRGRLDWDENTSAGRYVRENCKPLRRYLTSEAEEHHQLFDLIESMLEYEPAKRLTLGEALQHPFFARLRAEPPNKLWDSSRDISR

The structures appear in SMILES notation. The source made the active and inactive calls.

A word on the Ki: it is the dissociation constant of the complex between target and ligand, obtained from inhibition or displacement.

Turning to `CCN1CCN(Cc2ccc(NC(=O)Nc3ccc(Oc4cc(NC)ncn4)cc3)cc2C(F)(F)F)CC1` [AST-487], the Ki in test [1] is active: 158 nM; in test [2] it was active: 1580 nM; in test [3], inactive: > 2510 nM; in test [4], active: 3160 nM.

The values are drawn from ChEMBL document CHEMBL1201862, “PubChem BioAssay data set” (2004).
